The record followed here is published antibiotic growth screens (doi:10.1038/s41589-023-01349-8).

The other results are listed elsewhere or left out.

The assay has as its system A. baumannii ATCC 17978. The assay is described as follows: relative growth (fraction of control); higher = less inhibition. Conditions: 50 µM.
The compound `O=C(N[C@H]1CC=CC[C@H](CC(=O)N(CCO)Cc2ccccc2)C(=O)N[C@@H](Cc2c[nH]c3ccccc23)COC1=O)OCC1c2ccccc2-c2ccccc21` showed a relative growth of 1.02.

In the case of `C#CCCCCCCCCCCCC(O)CC(O)CO.C=CCCCCCCCCCCCC(O)CC(O)CO` (stereo not drawn), the relative growth amounted to 1.11.

Compound `Cn1cnc(S(=O)(=O)N[C@H]2CC[C@H](CC(=O)Nc3ccccc3)O[C@H]2CO)c1` displayed a relative growth of 1.06.

Regarding `NC(=O)c1ncn([C@@H]2O[C@H](CO)[C@@H](O)[C@H]2O)n1`, the relative growth stood at 0.914.

Regarding `Cc1ccccc1S(=O)(=O)N1C[C@@H](O)COC[C@H]2O[C@@H](CC(=O)N3CCC(Cc4ccccc4)CC3)CC[C@@H]21`, the relative growth was found to be 0.781.

Turning to `O=C(CN1CCOCC1)N[C@H]1CC[C@@H](CCNC(=O)C2CCC2)O[C@H]1CO`, the relative growth came out at 0.946.

Compound `CC(C)(C)NC[C@@H](O)COc1nsnc1N1CCOCC1.O=C(O)/C=C\C(=O)O` displayed a relative growth of 1.13.

For the compound `COCCOC(=O)N1C(=O)[C@@]2(c3cc(C#Cc4ccc(OC)cc4)ccc31)[C@H](C(=O)N1CCc3cc(OC)c(OC)cc3C1)[C@H]1C(=O)O[C@H](c3ccccc3)[C@H](c3ccccc3)N1[C@@H]2c1ccc(OCCO)cc1`, the relative growth amounted to 1.04.

`Cc1ccc(-c2cnc3c(c2)C(=O)N([C@H](C)CO)C[C@H](C)[C@H](CN(C)C(=O)Cc2ccncc2)O3)cc1` displayed a relative growth of 0.943.

As for `COc1cccc(S(=O)(=O)N(C)C[C@H]2Oc3cc(C4=CCCC4)ccc3S(=O)(=O)N([C@@H](C)CO)C[C@@H]2C)c1`, the relative growth amounted to 1.03.

In turn, `C(=C\[C@@H]1Nc2ccccc2-c2nc3ccccc3n21)/c1ccccc1` showed a relative growth of 1.01.

Turning to `Br.Cc1ccc(Sc2ccccc2N2CCNCC2)c(C)c1`, the relative growth was 1.12.

As to `C=CCON1C(=O)[C@@H]2[C@@H](C1=O)[C@@H]1C=C[C@@H]2O1`, the relative growth was determined as 0.967.

`C[C@H](CO)N1C[C@H](C)[C@H](CN(C)C)Oc2cc(C#CCN(C)C)ccc2S1(=O)=O`: the relative growth is 1.1.

`CC1=CC2C(C(C)C)CCC(C)(O)C2CC1` (stereo not drawn) registered a relative growth of 1.06.

For `C[C@H]1CN([C@@H](C)CO)C(=O)Cc2cc(NC(=O)Nc3ccc(Cl)c(Cl)c3)ccc2O[C@H]1CN(C)S(=O)(=O)c1ccc(Cl)cc1`, the relative growth was determined as 1.08.

For `O=C(C[C@H]1CC[C@@H]2[C@H](COC[C@@H](O)CN2C(=O)c2ccccc2)O1)N1CCOCC1`, the relative growth amounted to 1.01.

With `NS(=O)(=O)c1cc(C(=O)O)c(NCc2ccco2)cc1Cl`, the relative growth was 1.02.

In turn, `CC(C)n1c(-c2ccccc2)cs/c1=N\c1ccccc1` gave a relative growth of 0.957.

In turn, `CN(c1c[nH]c(=O)[nH]c1=O)C1CCCCC1` returned a relative growth of 0.982.

On to `C=CCSc1n[nH]c2nc(=O)cc(N)n12`, for which the relative growth is 1.02.

The compound `C=CCn1cnc2c1c(=O)[nH]c(=O)n2C` yielded a relative growth of 1.12.

`NCC[C@@H]1CC[C@@H](NC(=O)C2CC2)[C@H](CO)O1` had a relative growth of 1.05.

As to `CCO[C@H]1CC(C)(C)NC(=S)N1`, the relative growth came out at 1.03.

Take `COc1ccc(CN(CCN(C)C)c2ccccn2)cc1.O=C(O)/C=C\C(=O)O`: the relative growth was 0.927.

On to `CC(C)(C)c1ccc(NC(=O)c2ccc(C(C)(C)C)s2)cc1`, for which the relative growth stood at 1.08.

Turning to `O=C(CN1CCOCC1)N[C@H]1CC[C@@H](CCNC(=O)C2CCCCC2)O[C@H]1CO`, the relative growth came out at 1.1.

`COc1cc2nc(N3CCCN(Cc4ccccc4)CC3)nc(Nc3ccc(F)c(Cl)c3)c2cc1OC` showed a relative growth of 0.978.

Compound `Cc1cccc(S(=O)(=O)N2C[C@H](O)COC[C@H]3O[C@@H](CC(=O)NCCCN4CCOCC4)CC[C@@H]32)c1` yielded a relative growth of 0.994.

In the case of `O=C(C[C@@H]1C[C@@H]2c3cc(NC(=O)Nc4ccc(C(F)(F)F)cc4)ccc3O[C@@H]2[C@@H](CO)O1)NCc1ccc(Cl)cc1`, the relative growth worked out at 0.941.

`CN(C)C(=O)C[C@H]1CC[C@H](NC(=O)C2CC2)[C@@H](CO)O1` gave a relative growth of 1.03.

`O=C(O)c1cc(=O)c2ccccc2o1` came in with a relative growth of 1.23.

In turn, `CCCC(=O)Nc1ncnc2c1ncn2C1O[C@@H]2COP(=O)([O-])O[C@H]2[C@H]1OC(=O)CCC.[Na+]` (stereo partly drawn) yielded a relative growth of 1.21.

Regarding `C[C@H](CO)N1C[C@H](C)[C@H](CN(C)C(=O)c2ccccc2)Oc2cc(C#CC3(O)CCCC3)ccc2S1(=O)=O`, the relative growth stood at 1.05.

For `CC(=O)[C@@H](OC(=O)CS(C)(=O)=O)C(=O)NCc1ccccc1`, the relative growth came out at 1.01.

With `CCOC(=O)[C@@H](N)[C@@H](O)c1ccccc1`, the relative growth came out at 1.04.

For the compound `NNC(=O)CNC(=O)c1ccccc1`, the relative growth amounted to 1.07.

`CCCCCNC(=N)N/N=C/c1c[nH]c2ccc(OC)cc12.O=C(O)/C=C\C(=O)O` registered a relative growth of 0.772.

In turn, `NC(=CS(=O)(=O)Cc1ccc(F)cc1)NO` returned a relative growth of 1.04.

Compound `C[C@H]1CN([C@@H](C)CO)C(=O)CCCn2cc(nn2)CO[C@@H]1CN(C)C(=O)Nc1ccc(N2CCCCC2)cc1` showed a relative growth of 1.12.

`COc1ccc([Si](C)(C)[C@@H]2[C@@H](CC(=O)N(CCO)Cc3ccccc3)O[C@]3(C(=O)N(Cc4ccc(N5CCC5=O)cc4)c4ccccc43)[C@H]2C)cc1` showed a relative growth of 1.13.

`CO[C@H](CN(C)C(=O)Nc1ccc(C(F)(F)F)cc1)[C@H](C)CN(Cc1ccccc1Cl)[C@H](C)CO` returned a relative growth of 0.621.

`COc1ccc([Si](C)(C)[C@@H]2[C@@H](CCn3cc(CCO)nn3)O[C@]3(C(=O)N(Cc4ccc(N5C(=O)c6cccc7cccc5c67)cc4)c4ccccc43)[C@H]2C)cc1`: the relative growth turned out to be 1.18.

The compound `COC(=O)N[C@H](C(=O)N[C@@H](Cc1ccccc1)[C@@H](O)CN(Cc1ccc(-c2ccccn2)cc1)NC(=O)[C@@H](NC(=O)OC)C(C)(C)C)C(C)(C)C.O=S(=O)(O)O` displayed a relative growth of 0.826.

`Cc1ccc(S(=O)(=O)N2C[C@@H](O)COC[C@H]3O[C@@H](CC(=O)NCc4ccc5c(c4)OCO5)CC[C@@H]32)cc1` gave a relative growth of 0.961.

The compound `CN1CCN(C(=O)C[C@H]2CC[C@@H]3[C@H](COC[C@H](O)CN3Cc3ccc4c(c3)OCO4)O2)CC1` displayed a relative growth of 1.01.

Compound `C[C@H](CO)N1C[C@H](C)[C@@H](CN(C)C(=O)Nc2ccc3c(c2)OCO3)Oc2ncc(-c3cncnc3)cc2C1=O` registered a relative growth of 1.22.

Regarding `CCN(CC)Cc1ccc(Nc2ccnc3cc(Cl)ccc23)cc1O.Cl.Cl`, the relative growth was found to be 0.77.

Compound `S=C1SCN(Cc2ccccc2)CN1Cc1ccccc1` showed a relative growth of 1.28.

In the case of `O=C(O)c1cc2cc(Cl)ccc2[nH]1`, the relative growth was determined as 1.14.

Consider `O=c1ccc(=O)n(CCO)[nH]1`, for which the relative growth was found to be 1.01.

The compound `CN1CCN(C2=Nc3cc(Cl)ccc3Nc3ccccc32)CC1` came in with a relative growth of 0.917.

The compound `CO[C@H](CN(C)S(=O)(=O)c1cccc(Cl)c1)[C@@H](C)CN([C@H](C)CO)S(=O)(=O)c1cccc(Cl)c1` returned a relative growth of 1.1.
